Experimental data taken from patent US20240335465A1 (University of Virginia Patent Foundation, priority 2021, published 2024).

What was measured:
[1] = tested on: PARylation; experiment: PolyADP-ribosylation (PARylation) immunoblot; type: cell-based, human; conditions: WT THP1, Rec IFNβ 50 ng/ml 6 hours, then H2O2
From the text: Cells were collected by centrifugation, washed once with ice-cold PBS, lysed in RIPA buffer and analyzed by western blot to detect PARylation using pADPr Antibody (Santa Cruz sc-56198).

[2] = tested on: DDR signaling; experiment: DDR signaling immunoblotting in THP1 cells; conditions: WT THP1, recombinant human interferon β, 6 hours

B1: recIFN-β: human recombinant interferon β, a primary cytokine induced by cGAMP (protein, UniProt P01574 22-187, looked up)
Interferon beta: MSYNLLGFLQRSSNFQCQKLLWQLNGRLEYCLKDRMNFDIPEEIKQLQQFQKEDAALTIYEMLQNIFAIFRQDSSSTGWNETIVENLLANVYHQINHLKTVLEEKLEKEDFTRGKLMSSLHLKRYYGRILHYLKAKEYSHCAWTIVRVEILRNFYFINRLTGYLRN
In the case of B1, the “protein PARylation” value [1] is reported as “did not inhibit protein PARylation”, the “DDR marker γH2AX” value [2] is reported as “but not the DDR marker γH2AX” and the “STAT2 activation (pSTAT2)” value [2] is reported as “activation of the downstream signaling molecule STAT2”.
